The compounds below were run against T1, Recombinant human cathepsin S (CatS) (Homo sapiens, UniProt P25774) (assay: biochemical). Details: not given.
T1 construct: made in house; host or cells: baculovirus system (insect cells)

Amino acid sequences for entries named in this document (tags omitted). Residues count along the entry.
UniProt P25774, 115-331: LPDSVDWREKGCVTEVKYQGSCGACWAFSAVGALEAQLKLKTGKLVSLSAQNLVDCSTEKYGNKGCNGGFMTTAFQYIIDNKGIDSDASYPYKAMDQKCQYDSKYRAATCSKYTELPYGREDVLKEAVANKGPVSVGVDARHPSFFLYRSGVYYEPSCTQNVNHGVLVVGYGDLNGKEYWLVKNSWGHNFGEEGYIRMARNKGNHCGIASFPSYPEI

Compound	IC50
CC(=O)N1CCc2c(c(-c3ccc(Cl)c(C)c3)nn2CC(O)CN2CCC(n3c(=O)n(C)c4ccccc43)CC2)C1 (stereo not drawn) [Example 260, 1-(1-{3-[5-Acetyl-3-(4-chloro-3-methyl-phenyl)-4,5,6,7-tetrahydro-pyrazolo[4,3-c]pyridin-1-yl]-2-hydroxy-propyl}-piperidin-4-yl)-3-methyl-1,3-dihydro-benzoimidazol-2-one]	480 nM
NC(=O)N1CCc2c(c(-c3ccc(Br)cc3)nn2CCCN2CCC(n3c(=O)[nH]c4ccccc43)CC2)C1 [Example 366, 3-(4-Bromo-phenyl)-1-{3-[4-(2-oxo-2,3-dihydro-benzoimidazol-1-yl)-piperidin-1-yl]-propyl}-1,4,6,7-tetrahydro-pyrazolo[4,3-c]pyridine-5-carboxylic acid amide]	50 nM
CC(=O)N1CCc2c(c(-c3ccc(I)cc3)nn2CC(O)CN2CCC(n3c(=O)[nH]c4ccccc43)CC2)C1 (stereo not drawn) [Example 253, 1-(1-{3-[5-Acetyl-3-(4-iodo-phenyl)-4,5,6,7-tetrahydro-pyrazolo[4,3-c]pyridin-1-yl]-2-hydroxy-propyl}-piperidin-4-yl)-1,3-dihydro-benzoimidazol-2-one]	140 nM
CC(=O)N1CCc2c(c(-c3ccc(Cl)c(C)c3)nn2CC(O)CN2CCC(N3CCc4cc([N+](=O)[O-])ccc43)CC2)C1 (stereo not drawn) [Example 174, 1-(3-(4-Chloro-3-methyl-phenyl)-1-{2-hydroxy-3-[4-(5-nitro-2,3-dihydro-indol-1-yl)-piperidin-1-yl]-propyl}-1,4,6,7-tetrahydro-pyrazolo[4,3-c]pyridin-5-yl)-ethanone]	850 nM
CS(=O)(=O)N1CCc2c(c(-c3ccc(C(F)(F)F)cc3)nn2CC(O)CN2CCC(n3c(=O)n(Cc4ccncc4)c4ccccc43)CC2)C1 (stereo not drawn) [Example 384, 1-(1-{2-Hydroxy-3-[5-methanesulfonyl-3-(4-trifluoromethyl-phenyl)-4,5,6,7-tetrahydro-pyrazolo[4,3-c]pyridin-1-yl]-propyl}-piperidin-4-yl)-3-pyridin-4-ylmethyl-1,3-dihydro-benzoimidazol-2-one]	170 nM
CC(=O)N1CCc2c(c(-c3ccc(Cl)c(C)c3)nn2CC(O)CN2CCC(n3c(=O)n(CC(F)(F)F)c4ccccc43)CC2)C1 (stereo not drawn) [Example 306, 1-(1-{3-[5-Acetyl-3-(4-chloro-3-methyl-phenyl)-4,5,6,7-tetrahydro-pyrazolo[4,3-c]pyridin-1-yl]-2-hydroxy-propyl}-piperidin-4-yl)-3-(2,2,2-trifluoro-ethyl)-1,3-dihydrobenzoimidazol-2-one]	90 nM
Cn1c(=O)n(C2CCN(C[C@@H](O)Cn3nc(-c4ccc(C(F)(F)F)cc4)c4c3CCN(S(C)(=O)=O)C4)CC2)c2cc(Cl)ccc21 [Example 367, (R)-5-Chloro-3-(1-{2-hydroxy-3-[5-methanesulfonyl-3-(4-trifluoromethyl-phenyl)-4,5,6,7-tetrahydro-pyrazolo[4,3-c]pyridin-1-yl]-propyl}-piperidin-4-yl)-1-methyl-1,3-dihydro-benzoimidazol-2-one]	30 nM
CC(=O)N1CCc2c(c(-c3ccc(Cl)c(Cl)c3)nn2CC(O)CN2CCC(n3c(=O)[nH]c4ccccc43)CC2)C1 (stereo not drawn) [Example 290, 1-(1-{3-[5-Acetyl-3-(3,4-dichloro-phenyl)-4,5,6,7-tetrahydro-pyrazolo[4,3-c]pyridin-1-yl]-2-hydroxy-propyl}-piperidin-4-yl)-1,3-dihydro-benzoimidazol-2-one]	150 nM

Same assay, conditions: pH 5; read-out: IC50

Compound	IC50
1-[1-{2-Hydroxy-3-[4-(5-methyl-benzooxazol-2-yl)-piperidin-1-yl]-propyl}-3-trifluoromethyl-phenyl)-1,4,6,7-tetrahydro-pyrazolo[4,3-c]pyridin-5-yl]-ethanone [Example 401]	320 nM

Reference: patent US6953793B2 (priority 2000, dated 2005)
